Earlier results as cited in US20250339412A1, “METHODS OF TREATING SOLID TUMOR USING (19R)-5-CHLORO-3-ETHYL-16-FLUORO-10,19-DIMETHYL-20-OXA-3,4,10,11,23-PENTAAZAPENTACYCLO[19.3.1.02,6.08,12.013,18]PENTACOSA-1(24),2(6),4,8,11,13,15,17,21(25),22-DECAEN-22-AMINE” (Nuvalent, Inc., priority 2022, published 2025).

Tested on: ALK-positive NSCLC
Conditions: cited from earlier work

In the case of `C[C@@H](Oc1cc(-c2cnn(C3CCNCC3)c2)cnc1N)c1c(Cl)ccc(F)c1Cl` [Crizotinib], the median progression-free survival is given as 8-11 months and the overall response rate is given as 60-80%.
